Measured values as given in ChEMBL document CHEMBL4393671, “Design of a Cyclin G Associated Kinase (GAK)/Epidermal Growth Factor Receptor (EGFR) Inhibitor Set to Interrogate the Relationship of EGFR and GAK in Chordoma” (J Med Chem, 2019).

Amino acid sequences for entries named in this document (tags omitted).
UniProt P00533, whole entry: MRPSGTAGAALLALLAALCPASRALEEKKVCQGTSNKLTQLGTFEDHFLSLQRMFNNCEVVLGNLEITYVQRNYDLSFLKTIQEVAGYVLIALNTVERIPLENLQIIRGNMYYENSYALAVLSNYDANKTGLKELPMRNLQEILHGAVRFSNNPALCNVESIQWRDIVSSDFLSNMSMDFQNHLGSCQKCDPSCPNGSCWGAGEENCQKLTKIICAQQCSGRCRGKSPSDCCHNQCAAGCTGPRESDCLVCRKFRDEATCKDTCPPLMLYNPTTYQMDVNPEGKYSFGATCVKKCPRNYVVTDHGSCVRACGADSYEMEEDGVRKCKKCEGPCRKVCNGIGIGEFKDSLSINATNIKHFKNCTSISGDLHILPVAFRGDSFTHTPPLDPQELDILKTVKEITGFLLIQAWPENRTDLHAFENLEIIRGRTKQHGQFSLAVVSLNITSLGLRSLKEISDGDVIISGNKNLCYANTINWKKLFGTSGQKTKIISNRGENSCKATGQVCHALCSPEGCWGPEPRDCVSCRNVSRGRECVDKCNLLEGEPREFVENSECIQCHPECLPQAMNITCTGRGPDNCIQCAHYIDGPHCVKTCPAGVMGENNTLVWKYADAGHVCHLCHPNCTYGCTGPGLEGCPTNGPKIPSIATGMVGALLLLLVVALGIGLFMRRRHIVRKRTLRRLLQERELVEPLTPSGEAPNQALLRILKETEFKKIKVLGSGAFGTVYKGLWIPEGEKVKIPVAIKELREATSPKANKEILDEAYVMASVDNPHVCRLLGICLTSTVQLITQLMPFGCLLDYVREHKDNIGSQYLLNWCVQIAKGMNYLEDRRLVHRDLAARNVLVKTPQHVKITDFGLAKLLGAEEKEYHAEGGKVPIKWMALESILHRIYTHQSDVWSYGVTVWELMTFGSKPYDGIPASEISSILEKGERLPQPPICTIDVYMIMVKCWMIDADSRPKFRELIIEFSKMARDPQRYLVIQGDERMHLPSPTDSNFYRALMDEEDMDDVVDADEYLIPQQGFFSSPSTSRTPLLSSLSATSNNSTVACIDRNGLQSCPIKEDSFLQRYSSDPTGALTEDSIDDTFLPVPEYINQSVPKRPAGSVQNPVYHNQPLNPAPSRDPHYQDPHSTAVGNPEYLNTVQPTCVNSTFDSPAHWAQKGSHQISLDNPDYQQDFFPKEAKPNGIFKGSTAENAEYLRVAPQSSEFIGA

Columns and labels:
[1] = target: T1, Epidermal growth factor receptor (Homo sapiens, UniProt P00533);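 on IC50: human A431 cells pretreated 90 min, then EGF stimulated, sandwich ELISA measured decrease in EGF-induced receptor autophosphorylation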;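 on Kd: KINOMEscan competition binding with recombinant partial wild-type human EGFR (residues R669–V1011) produced in bacteria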
[2] = target: T1, Epidermal growth factor receptor; type: cell-based

- Kd [1]: 0.022 µM
- IC50 [2]: 5.4 µM
Structure (SMILES): COc1cc2ncnc(Nc3cc(OC)c(OC)c(OC)c3)c2cc1OC
